Assay results reported in patent US20170151343A1 (AbbVie / Abbott, published 2017).

Target: T1, mouse LRRC15, expressed on murine Balb/c BM-MSC cells (mouse, UniProt Q80X72 22-579)
T1 construct: whole, on cells; also called muLRRC15
Assay: flow cytometry histograms on murine Balb/c BM-MSC (Cyagen), without or with TGFbeta, AF647-labeled antibody

binding result: binds
B1: huM25 (antibody, human IgG1, kappa)
heavy: not shown
light: DIQMTQSPSSLSASVGDRVTITCRASQDISNYLNWYQQKPGGAVKFLIYYTSRLHSGVPSRFSGSGSGTDYTLTISSLQPEDFATYFCQQGEALPWTFGGGTKVEIKRTVAAPSVFIFPPSDEQLKSGTASVVCLLNNFYPREAKVQWKVDNALQSGNSQESVTEQDSKDSTYSLSSTLTLSKADYEKHKVYACEVTHQGLSSPVTKSFNRGEC
notes: Humanized IgG1 kappa; also called AF647-labeled huM25; huM25-AF647
